The text below walks through data of publication PMC6478789, “A chemical toolbox for the study of bromodomains and epigenetic signaling” (Nature Communications, 2019).

Amino acid sequences for entries named in this document (tags omitted). Residues count along the entry.
UniProt P25440, 344-453 limits assumed: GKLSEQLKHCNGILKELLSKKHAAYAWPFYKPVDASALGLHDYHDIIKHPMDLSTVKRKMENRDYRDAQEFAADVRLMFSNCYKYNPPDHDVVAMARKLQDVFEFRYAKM
UniProt P25440, 74-180 limits assumed: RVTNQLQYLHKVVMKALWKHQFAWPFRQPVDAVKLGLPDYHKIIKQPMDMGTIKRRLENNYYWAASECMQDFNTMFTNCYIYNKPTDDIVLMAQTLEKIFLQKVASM
UniProt P25440, 71-455 limits assumed: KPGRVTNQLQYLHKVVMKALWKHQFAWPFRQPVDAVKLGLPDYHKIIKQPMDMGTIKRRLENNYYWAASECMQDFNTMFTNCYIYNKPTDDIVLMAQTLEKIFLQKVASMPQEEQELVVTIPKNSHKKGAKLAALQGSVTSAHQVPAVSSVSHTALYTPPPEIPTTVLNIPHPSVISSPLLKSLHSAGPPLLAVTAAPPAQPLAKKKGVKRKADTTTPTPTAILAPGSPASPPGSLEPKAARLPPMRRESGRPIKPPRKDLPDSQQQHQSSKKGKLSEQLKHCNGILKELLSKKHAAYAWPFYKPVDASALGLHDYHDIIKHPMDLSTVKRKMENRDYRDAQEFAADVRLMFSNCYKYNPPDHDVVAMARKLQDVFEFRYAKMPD
UniProt Q9NPI1, 131-235 limits assumed: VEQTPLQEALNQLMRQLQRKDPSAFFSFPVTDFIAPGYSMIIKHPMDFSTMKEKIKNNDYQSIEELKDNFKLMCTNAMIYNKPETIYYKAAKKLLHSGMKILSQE
UniProt P51813, 417-675 limits assumed, species assumed: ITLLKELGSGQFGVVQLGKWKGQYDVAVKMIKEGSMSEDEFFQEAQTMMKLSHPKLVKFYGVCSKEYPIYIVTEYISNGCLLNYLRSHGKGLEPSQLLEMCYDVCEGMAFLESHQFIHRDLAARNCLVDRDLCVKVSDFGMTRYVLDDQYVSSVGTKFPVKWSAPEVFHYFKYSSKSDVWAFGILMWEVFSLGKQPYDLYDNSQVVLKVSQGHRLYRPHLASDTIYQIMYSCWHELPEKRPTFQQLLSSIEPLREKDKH
UniProt P28482, 25-313 limits assumed, species assumed: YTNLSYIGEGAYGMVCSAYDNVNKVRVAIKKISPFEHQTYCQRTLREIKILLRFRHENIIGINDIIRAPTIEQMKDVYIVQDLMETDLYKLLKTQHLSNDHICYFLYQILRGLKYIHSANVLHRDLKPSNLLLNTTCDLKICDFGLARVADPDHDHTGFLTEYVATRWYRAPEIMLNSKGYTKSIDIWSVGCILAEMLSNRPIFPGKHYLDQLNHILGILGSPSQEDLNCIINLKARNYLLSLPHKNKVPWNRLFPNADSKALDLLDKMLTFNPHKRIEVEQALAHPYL
UniProt P11309, 38-290 limits assumed, species assumed: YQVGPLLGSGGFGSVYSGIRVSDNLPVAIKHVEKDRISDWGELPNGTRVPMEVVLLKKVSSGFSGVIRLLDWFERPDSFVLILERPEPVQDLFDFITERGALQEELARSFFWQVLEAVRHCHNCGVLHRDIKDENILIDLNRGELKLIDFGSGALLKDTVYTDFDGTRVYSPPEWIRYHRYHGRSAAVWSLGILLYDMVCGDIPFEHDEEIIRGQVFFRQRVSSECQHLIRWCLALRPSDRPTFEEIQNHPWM
UniProt P15056, 457-717 limits assumed, species assumed: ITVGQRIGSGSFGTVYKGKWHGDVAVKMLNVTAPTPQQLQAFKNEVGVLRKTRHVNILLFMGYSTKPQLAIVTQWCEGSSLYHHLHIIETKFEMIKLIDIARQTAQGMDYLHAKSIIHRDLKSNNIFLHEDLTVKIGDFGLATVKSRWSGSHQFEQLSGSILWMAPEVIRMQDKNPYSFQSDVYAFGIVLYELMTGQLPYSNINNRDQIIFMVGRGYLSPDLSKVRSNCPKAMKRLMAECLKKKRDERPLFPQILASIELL
UniProt Q7KZF4, 729-787 limits assumed, species assumed: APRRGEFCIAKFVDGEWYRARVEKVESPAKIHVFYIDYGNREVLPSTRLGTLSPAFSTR
UniProt P68400, 39-324 limits assumed, species assumed: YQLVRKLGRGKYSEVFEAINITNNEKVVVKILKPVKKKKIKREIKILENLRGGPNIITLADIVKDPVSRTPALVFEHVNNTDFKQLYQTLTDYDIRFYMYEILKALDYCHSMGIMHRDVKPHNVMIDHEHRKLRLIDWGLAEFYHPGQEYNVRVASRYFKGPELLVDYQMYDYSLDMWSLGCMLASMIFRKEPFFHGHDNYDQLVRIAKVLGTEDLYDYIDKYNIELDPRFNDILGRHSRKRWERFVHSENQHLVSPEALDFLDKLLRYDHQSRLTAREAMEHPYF
UniProt P07332, 561-822 limits assumed, species assumed: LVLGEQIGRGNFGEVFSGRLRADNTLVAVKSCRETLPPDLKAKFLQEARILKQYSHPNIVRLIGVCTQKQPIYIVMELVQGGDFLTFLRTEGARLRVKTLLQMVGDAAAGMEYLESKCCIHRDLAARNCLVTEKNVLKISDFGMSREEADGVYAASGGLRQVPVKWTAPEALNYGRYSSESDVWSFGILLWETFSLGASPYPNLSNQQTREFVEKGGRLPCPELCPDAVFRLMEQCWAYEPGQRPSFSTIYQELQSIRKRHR
UniProt O14936, 12-276 limits assumed: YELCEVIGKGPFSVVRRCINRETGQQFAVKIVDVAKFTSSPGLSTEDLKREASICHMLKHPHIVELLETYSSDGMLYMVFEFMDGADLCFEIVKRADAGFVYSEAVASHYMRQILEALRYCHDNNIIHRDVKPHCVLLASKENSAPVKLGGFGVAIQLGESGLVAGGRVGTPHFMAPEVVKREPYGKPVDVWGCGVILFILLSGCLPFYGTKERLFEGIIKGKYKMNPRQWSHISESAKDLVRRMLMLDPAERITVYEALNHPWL
UniProt P00519, 242-493 limits assumed, species assumed: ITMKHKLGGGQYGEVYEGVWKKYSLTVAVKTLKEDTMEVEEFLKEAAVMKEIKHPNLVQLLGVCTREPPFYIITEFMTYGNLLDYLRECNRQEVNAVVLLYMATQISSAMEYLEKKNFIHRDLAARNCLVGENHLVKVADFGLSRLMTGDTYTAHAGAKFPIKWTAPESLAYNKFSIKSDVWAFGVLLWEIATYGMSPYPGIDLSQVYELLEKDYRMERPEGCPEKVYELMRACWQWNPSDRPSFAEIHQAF
UniProt P55201, 1085-1168 limits assumed, species assumed: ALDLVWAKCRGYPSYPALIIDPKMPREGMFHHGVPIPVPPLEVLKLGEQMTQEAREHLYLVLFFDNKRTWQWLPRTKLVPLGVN
UniProt Q96RR4, 165-446 limits assumed, species assumed: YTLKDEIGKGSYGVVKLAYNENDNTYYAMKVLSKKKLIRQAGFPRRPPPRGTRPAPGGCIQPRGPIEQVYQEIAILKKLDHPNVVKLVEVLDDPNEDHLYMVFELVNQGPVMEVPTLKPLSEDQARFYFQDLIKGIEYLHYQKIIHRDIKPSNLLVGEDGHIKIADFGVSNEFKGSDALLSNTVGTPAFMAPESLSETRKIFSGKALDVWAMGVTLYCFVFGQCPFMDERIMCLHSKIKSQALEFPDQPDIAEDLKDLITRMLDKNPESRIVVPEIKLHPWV
UniProt Q12888, 1484-1603 limits assumed, species assumed: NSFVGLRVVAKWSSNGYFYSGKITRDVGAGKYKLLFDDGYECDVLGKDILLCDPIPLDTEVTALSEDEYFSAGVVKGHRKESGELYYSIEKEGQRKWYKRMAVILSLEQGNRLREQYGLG
UniProt Q13188, 27-278 limits assumed: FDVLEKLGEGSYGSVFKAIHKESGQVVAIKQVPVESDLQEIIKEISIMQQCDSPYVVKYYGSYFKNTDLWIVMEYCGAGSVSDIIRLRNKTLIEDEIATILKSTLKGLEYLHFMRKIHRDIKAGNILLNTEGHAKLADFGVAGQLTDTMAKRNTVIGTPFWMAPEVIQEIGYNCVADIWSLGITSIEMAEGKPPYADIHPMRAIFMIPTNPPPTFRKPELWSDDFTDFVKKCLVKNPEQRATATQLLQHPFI
UniProt O96013, 321-572 limits assumed, species assumed: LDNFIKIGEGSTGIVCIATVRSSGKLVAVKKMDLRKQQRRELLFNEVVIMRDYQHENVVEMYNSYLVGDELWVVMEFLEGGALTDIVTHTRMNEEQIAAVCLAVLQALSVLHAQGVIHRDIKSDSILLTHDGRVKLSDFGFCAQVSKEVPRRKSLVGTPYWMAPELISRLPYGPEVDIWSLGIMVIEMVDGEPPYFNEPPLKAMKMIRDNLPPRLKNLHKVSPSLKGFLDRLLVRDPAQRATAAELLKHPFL
UniProt P29317, 613-875 limits assumed, species assumed: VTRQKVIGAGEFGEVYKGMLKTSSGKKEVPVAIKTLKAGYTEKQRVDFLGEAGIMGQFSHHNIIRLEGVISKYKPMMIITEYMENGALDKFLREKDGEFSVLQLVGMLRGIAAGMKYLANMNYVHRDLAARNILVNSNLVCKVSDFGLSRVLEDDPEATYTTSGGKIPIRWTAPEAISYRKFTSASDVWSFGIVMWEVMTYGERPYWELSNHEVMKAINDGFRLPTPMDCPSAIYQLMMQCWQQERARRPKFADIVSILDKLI
UniProt Q96NX5, 23-277 limits assumed, species assumed: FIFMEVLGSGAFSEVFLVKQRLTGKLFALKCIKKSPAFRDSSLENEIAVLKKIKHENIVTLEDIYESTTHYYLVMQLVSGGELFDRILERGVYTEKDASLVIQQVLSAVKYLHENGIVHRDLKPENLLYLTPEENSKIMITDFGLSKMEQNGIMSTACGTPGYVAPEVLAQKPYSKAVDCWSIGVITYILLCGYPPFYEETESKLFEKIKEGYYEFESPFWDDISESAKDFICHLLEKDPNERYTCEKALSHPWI
UniProt P48730, 9-277 limits assumed, species assumed: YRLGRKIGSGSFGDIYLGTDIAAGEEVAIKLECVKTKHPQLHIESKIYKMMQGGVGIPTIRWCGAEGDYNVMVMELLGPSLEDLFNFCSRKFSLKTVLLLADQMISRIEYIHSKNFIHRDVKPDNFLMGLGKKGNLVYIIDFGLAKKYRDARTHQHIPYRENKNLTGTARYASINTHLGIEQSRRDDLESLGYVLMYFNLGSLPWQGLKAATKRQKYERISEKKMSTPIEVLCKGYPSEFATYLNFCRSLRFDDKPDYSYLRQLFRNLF
UniProt P45983, 26-321 limits assumed, species assumed: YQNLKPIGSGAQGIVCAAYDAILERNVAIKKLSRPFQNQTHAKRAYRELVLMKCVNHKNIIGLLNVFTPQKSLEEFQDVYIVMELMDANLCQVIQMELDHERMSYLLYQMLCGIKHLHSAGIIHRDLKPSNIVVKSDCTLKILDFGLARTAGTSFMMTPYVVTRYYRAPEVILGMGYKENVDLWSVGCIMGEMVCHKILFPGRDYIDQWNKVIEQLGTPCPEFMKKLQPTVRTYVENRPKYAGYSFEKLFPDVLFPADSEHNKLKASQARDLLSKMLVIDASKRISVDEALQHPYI
UniProt Q96T88, 126-285 limits assumed: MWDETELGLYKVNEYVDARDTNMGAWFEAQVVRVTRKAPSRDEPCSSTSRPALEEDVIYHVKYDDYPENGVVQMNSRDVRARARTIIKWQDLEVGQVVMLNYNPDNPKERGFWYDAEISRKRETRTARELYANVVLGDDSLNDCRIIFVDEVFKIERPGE
UniProt O43293, 13-275 limits assumed, species assumed: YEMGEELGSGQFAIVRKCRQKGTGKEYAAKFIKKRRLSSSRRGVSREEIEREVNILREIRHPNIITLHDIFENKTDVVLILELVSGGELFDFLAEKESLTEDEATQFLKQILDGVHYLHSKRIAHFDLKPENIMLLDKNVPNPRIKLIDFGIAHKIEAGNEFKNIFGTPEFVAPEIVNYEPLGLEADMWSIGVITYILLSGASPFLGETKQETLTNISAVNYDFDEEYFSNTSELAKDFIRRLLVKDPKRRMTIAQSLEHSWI
UniProt P51532, 1453-1564 limits assumed: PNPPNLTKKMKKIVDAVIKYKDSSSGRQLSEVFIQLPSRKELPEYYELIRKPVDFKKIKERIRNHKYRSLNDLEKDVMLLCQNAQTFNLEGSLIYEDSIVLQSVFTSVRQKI
UniProt Q2M2I8, 46-315 limits assumed, species assumed: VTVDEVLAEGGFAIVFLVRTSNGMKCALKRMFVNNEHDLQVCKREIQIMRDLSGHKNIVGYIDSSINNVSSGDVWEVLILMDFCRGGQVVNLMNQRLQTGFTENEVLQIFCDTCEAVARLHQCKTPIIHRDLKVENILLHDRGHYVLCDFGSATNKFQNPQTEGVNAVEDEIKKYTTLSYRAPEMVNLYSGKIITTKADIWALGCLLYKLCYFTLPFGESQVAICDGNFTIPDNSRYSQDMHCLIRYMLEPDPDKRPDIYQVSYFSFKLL
UniProt O75530, whole entry, species assumed: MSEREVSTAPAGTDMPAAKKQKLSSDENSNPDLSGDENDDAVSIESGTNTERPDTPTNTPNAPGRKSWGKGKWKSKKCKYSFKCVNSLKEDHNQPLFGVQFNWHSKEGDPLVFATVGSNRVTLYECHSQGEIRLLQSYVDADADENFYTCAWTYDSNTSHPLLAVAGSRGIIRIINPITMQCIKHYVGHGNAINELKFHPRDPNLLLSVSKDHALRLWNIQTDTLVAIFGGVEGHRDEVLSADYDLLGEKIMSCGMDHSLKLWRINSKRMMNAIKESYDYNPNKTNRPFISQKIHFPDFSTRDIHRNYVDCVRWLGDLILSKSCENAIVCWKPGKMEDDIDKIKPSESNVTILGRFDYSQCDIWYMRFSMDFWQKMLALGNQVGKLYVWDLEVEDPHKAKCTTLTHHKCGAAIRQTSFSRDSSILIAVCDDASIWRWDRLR
UniProt Q9H7E2, 555-615 limits assumed, species assumed: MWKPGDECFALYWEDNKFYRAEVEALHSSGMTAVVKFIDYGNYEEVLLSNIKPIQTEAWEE
UniProt P33981, 525-791 limits assumed, species assumed: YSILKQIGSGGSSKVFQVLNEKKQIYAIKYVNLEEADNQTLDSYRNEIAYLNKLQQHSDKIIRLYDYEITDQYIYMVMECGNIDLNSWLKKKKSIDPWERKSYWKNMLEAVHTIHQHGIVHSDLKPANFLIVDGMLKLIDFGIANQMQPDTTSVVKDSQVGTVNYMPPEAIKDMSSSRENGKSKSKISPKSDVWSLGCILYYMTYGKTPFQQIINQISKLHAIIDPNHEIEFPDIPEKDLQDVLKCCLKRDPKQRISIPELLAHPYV

Assay [1] has as its target BRD2(2) (Homo sapiens, UniProt P25440). Put plainly: BROMOscan ligand-binding assay.
The target in assay [2] is BRD2(1) (Homo sapiens, UniProt P25440). Kind of assay: BROMOscan ligand-binding assay.
Assay [3] concerns the target BRD2(1,2) (Homo sapiens, UniProt P25440). Put plainly: BROMOscan ligand-binding assay.
Assay [4] concerns BT-549 and MDA-MB436 cell lines. Put plainly: JQ1 dose-response with or without BAY-876. It counts as cell-based, human. Conditions: with or without 3 μM BAY-876, 7 days.
For assay [5], the target named is BRD7 (Homo sapiens, UniProt Q9NPI1). Kind of assay: BROMOscan ligand-binding assay.
Assay [6] deals with T1, BRPF3 (Homo sapiens, UniProt Q9ULD4). Put plainly: BROMOscan ligand-binding assay.
In assay [7] the target is T1, BRPF3. Further details: purchased; method as in ref 11 (suppl.). To be noted: ITC data; ref 11 (suppl.); cited from earlier work.
Assay [8] concerns RBBP1. Put plainly: Temperature shift assay (non-BRD reader domains). Format: binding. To be noted: 10µM compound.
Assay [9] concerns the target T2, BMX (Homo sapiens, UniProt P51813).
T2 construct: Recombinant protein domains (bromodomain or kinases) at a concentration of 2 μM
Kind of assay: Temperature shift assay (protein kinases). Format: binding. To be noted: 10 μM probe; average of three measurements.

The target in assay [10] is T3, MAPK1 (Homo sapiens, UniProt P28482).
T3 construct: Recombinant protein domains (bromodomain or kinases) at a concentration of 2 μM
Put plainly: Temperature shift assay (protein kinases). It counts as binding. Conditions: 10 μM probe; average of three measurements.

The target in assay [11] is BRPF3 (Homo sapiens, UniProt Q9ULD4). Kind of assay: Temperature shift assay (non-BRD reader domains). Conditions: 10µM compound.
Assay [12] deals with T4, PIM1 (Homo sapiens, UniProt P11309).
T4 construct: Recombinant protein domains (bromodomain or kinases) at a concentration of 2 μM
Kind of assay: Temperature shift assay (protein kinases). Format: binding. Conditions: 10 μM probe; average of three measurements.

The target of assay [13] is T5, BRAF (Homo sapiens, UniProt P15056).
T5 construct: Recombinant protein domains (bromodomain or kinases) at a concentration of 2 μM
Kind of assay: Temperature shift assay (protein kinases). It counts as binding. Conditions: 10 μM probe; average of three measurements.

The target of assay [14] is SND1 (Homo sapiens, UniProt Q7KZF4). Put plainly: Temperature shift assay (non-BRD reader domains). Conditions: 10µM compound.
Assay [15] has as its target T6, CK2A1 (Homo sapiens, UniProt P68400).
T6 construct: Recombinant protein domains (bromodomain or kinases) at a concentration of 2 μM
Put plainly: Temperature shift assay (protein kinases). Format: binding. To be noted: 10 μM probe; average of three measurements.

Assay [16] concerns the target T7, FES (Homo sapiens, UniProt P07332).
T7 construct: Recombinant protein domains (bromodomain or kinases) at a concentration of 2 μM
Put plainly: Temperature shift assay (protein kinases). It counts as binding. Conditions: 10 μM probe; average of three measurements.

The target in assay [17] is T8, CASK (Homo sapiens, UniProt O14936).
T8 construct: Recombinant protein domains (bromodomain or kinases) at a concentration of 2 μM
Kind of assay: Temperature shift assay (protein kinases). Format: binding. To be noted: 10 μM probe; average of three measurements.

For assay [18], the target named is T9, MERTK (Homo sapiens, UniProt Q12866).
T9 construct: Recombinant protein domains (bromodomain or kinases) at a concentration of 2 μM
Kind of assay: Temperature shift assay (protein kinases). To be noted: 10 μM probe; average of three measurements. It counts as binding.

Assay [19] has as its target T10, ABL1 (Homo sapiens, UniProt P00519).
T10 construct: Recombinant protein domains (bromodomain or kinases) at a concentration of 2 μM
Put plainly: Temperature shift assay (protein kinases). Format: binding. Conditions: 10 μM probe; average of three measurements.

Assay [20] deals with BRPF1 (Homo sapiens, UniProt P55201). Put plainly: Temperature shift assay (non-BRD reader domains). Format: binding. To be noted: 10µM compound.
In assay [21] the target is T11, CAMKK2 (Homo sapiens, UniProt Q96RR4).
T11 construct: Recombinant protein domains (bromodomain or kinases) at a concentration of 2 μM
Kind of assay: Temperature shift assay (protein kinases). Format: binding. Conditions: 10 μM probe; average of three measurements.

Assay [22] has as its target 53BP1 (Homo sapiens, UniProt Q12888). Put plainly: Temperature shift assay (non-BRD reader domains). Conditions: 10µM compound.
Assay [23] deals with T12, STK10 (Homo sapiens, UniProt O94804).
T12 construct: Recombinant protein domains (bromodomain or kinases) at a concentration of 2 μM
Put plainly: Temperature shift assay (protein kinases). It counts as binding. Conditions: 10 μM probe; average of three measurements.

Assay [24] has as its target T13, STK3 (Homo sapiens, UniProt Q13188).
T13 construct: Recombinant protein domains (bromodomain or kinases) at a concentration of 2 μM
Put plainly: Temperature shift assay (protein kinases). Format: binding. Conditions: 10 μM probe; average of three measurements.

The target in assay [25] is T14, PAK4 (Homo sapiens, UniProt O96013).
T14 construct: Recombinant protein domains (bromodomain or kinases) at a concentration of 2 μM
Put plainly: Temperature shift assay (protein kinases). To be noted: 10 μM probe; average of three measurements. It counts as binding.

Assay [26] deals with T15, EPHA2 (Homo sapiens, UniProt P29317).
T15 construct: Recombinant protein domains (bromodomain or kinases) at a concentration of 2 μM
Put plainly: Temperature shift assay (protein kinases). It counts as binding. Conditions: 10 μM probe; average of three measurements.

Assay [27] concerns the target T16, CAMK1G (Homo sapiens, UniProt Q96NX5).
T16 construct: Recombinant protein domains (bromodomain or kinases) at a concentration of 2 μM
Kind of assay: Temperature shift assay (protein kinases). Format: binding. Conditions: 10 μM probe; average of three measurements.

Assay [28] has as its target T17, CSNK1D (Homo sapiens, UniProt P48730).
T17 construct: Recombinant protein domains (bromodomain or kinases) at a concentration of 2 μM
Kind of assay: Temperature shift assay (protein kinases). It counts as binding. Conditions: 10 μM probe; average of three measurements.

Assay [29] addresses T18, MAPK8 (Homo sapiens, UniProt P45983).
T18 construct: Recombinant protein domains (bromodomain or kinases) at a concentration of 2 μM
Put plainly: Temperature shift assay (protein kinases). Format: binding. To be noted: 10 μM probe; average of three measurements.

The target in assay [30] is T19, GSG2 (Homo sapiens, UniProt Q8TF76).
T19 construct: Recombinant protein domains (bromodomain or kinases) at a concentration of 2 μM
Kind of assay: Temperature shift assay (protein kinases). It counts as binding. To be noted: 10 μM probe; average of three measurements.

The target of assay [31] is UHRF1 (Homo sapiens, UniProt Q96T88). Put plainly: Temperature shift assay (non-BRD reader domains). Conditions: 10µM compound.
The target in assay [32] is WDR5 (Homo sapiens, UniProt P61964). Put plainly: Temperature shift assay (non-BRD reader domains). Conditions: 10µM compound.
Assay [33] concerns the target T20, DAPK3 (Homo sapiens, UniProt O43293).
T20 construct: Recombinant protein domains (bromodomain or kinases) at a concentration of 2 μM
Put plainly: Temperature shift assay (protein kinases). Conditions: 10 μM probe; average of three measurements. Format: binding.

The target of assay [34] is SMARCA4 (Homo sapiens, UniProt P51532). Put plainly: BROMOscan ligand-binding assay.
Assay [35] deals with T21, PHGK2 (Homo sapiens, UniProt P15735).
T21 construct: Recombinant protein domains (bromodomain or kinases) at a concentration of 2 μM
Put plainly: Temperature shift assay (protein kinases). To be noted: 10 μM probe; average of three measurements. It counts as binding.

The target in assay [36] is T22, GPRK5 (Homo sapiens, UniProt P34947).
T22 construct: Recombinant protein domains (bromodomain or kinases) at a concentration of 2 μM
Put plainly: Temperature shift assay (protein kinases). It counts as binding. Conditions: 10 μM probe; average of three measurements.

The target of assay [37] is T23, AAK1 (Homo sapiens, UniProt Q2M2I8).
T23 construct: Recombinant protein domains (bromodomain or kinases) at a concentration of 2 μM
Kind of assay: Temperature shift assay (protein kinases). Format: binding. To be noted: 10 μM probe; average of three measurements.

Assay [38] deals with FXR1 (Homo sapiens, UniProt P51114). Kind of assay: Temperature shift assay (non-BRD reader domains). To be noted: 10µM compound.
Assay [39] deals with T24, DYRK1A (Homo sapiens, UniProt Q13627).
T24 construct: Recombinant protein domains (bromodomain or kinases) at a concentration of 2 μM
Put plainly: Temperature shift assay (protein kinases). To be noted: 10 μM probe; average of three measurements. It counts as binding.

The target of assay [40] is EED (Homo sapiens, UniProt O75530). Kind of assay: Temperature shift assay (non-BRD reader domains). To be noted: 10µM compound.
Assay [41] addresses T25, AURKB (Homo sapiens, UniProt Q96GD4).
T25 construct: Recombinant protein domains (bromodomain or kinases) at a concentration of 2 μM
Kind of assay: Temperature shift assay (protein kinases). Format: binding. Conditions: 10 μM probe; average of three measurements.

The target of assay [42] is TDRD3 (Homo sapiens, UniProt Q9H7E2). Kind of assay: Temperature shift assay (non-BRD reader domains). Conditions: 10µM compound.
For assay [43], the target named is T26, TTK (Homo sapiens, UniProt P33981).
T26 construct: Recombinant protein domains (bromodomain or kinases) at a concentration of 2 μM
Kind of assay: Temperature shift assay (protein kinases). It counts as binding. To be noted: 10 μM probe; average of three measurements.

Assay [44] has as its system RPS6KA1. Put plainly: Temperature shift assay (protein kinases). Format: binding. To be noted: 10 μM probe; average of three measurements.

Like-named read-outs stand apart in the source and are kept apart here.

In general, Kd refers to the free concentration of one partner at which half of the binding sites on the other are occupied at equilibrium, for simple one-to-one binding. As to `CCOC(=O)Nc1cc(-c2ccc(C)c(NS(C)(=O)=O)c2)nn2c(C)nnc12` [Bromosporine], the Kd in [1] stood at 84 nM; in assay [2], 220 nM; in assay [3], 66.5 nM.
Take `Cc1sc2c(c1C)C(c1ccc(Cl)cc1)=NC(CC(=O)OC(C)(C)C)c1nnc(C)n1-2` (stereo not shown) [JQ1]: in assay [4], the “synergy with BAY-876” value is reported as “no significant effect”.
With `COc1cc(C#N)ccc1S(=O)(=O)Nc1ccc2c(c1)cc(C)c(=O)n2C` [NI 57], the Kd in assay [5] was determined as 100 nM; in assay [6], 110 nM.
Turning to `COc1cc(C#N)ccc1S(=O)(=O)Nc1ccc2c(c1)cc(C)c(=O)n2C` [NIC57], the Kd in assay [7] is 409 nM.
`CCCS(=O)(=O)c1nc(NC2CC2)cc(-c2ccc3c(ccn3C3CC(C)(C)NC(C)(C)C3)c2)n1` [NVS-CECR2-1]: the “Tm (C) 10µM, temperature shift” value in [8] is given as -1.0 Kelvin; in [11], -0.3 Kelvin; in assay [14], -1.7 Kelvin; in assay [20], -0.2 Kelvin; in assay [22], -0.6 Kelvin; in [31], -0.3 Kelvin. Moreover, the “Tm (C) 10µM, temperature shift” value is reported as -0.2 Kelvin in [32], -5.1 Kelvin in assay [38], -1.0 Kelvin in assay [40] and -3.3 Kelvin in assay [42]. Further, the Temperature shift in assay [9] is 0.0 Kelvin; in [10] it was 0.3 Kelvin; in [12], 0.4 Kelvin; in [13], -0.1 Kelvin; in assay [15], -1.0 Kelvin; in [16] it was -0.5 Kelvin. In addition, the Temperature shift in assay [17] is listed as 0.1 Kelvin; in assay [18], 0.0 Kelvin; in assay [19] it was 0.0 Kelvin; in assay [21], -0.3 Kelvin; in assay [23], -0.1 Kelvin; in assay [24], -0.1 Kelvin. The Temperature shift in assay [25] is given as -0.1 Kelvin; in [26], 1.5 Kelvin; in assay [27] it was -0.4 Kelvin; in [28], 0.4 Kelvin; in [29], -0.3 Kelvin; in assay [30] it was 0.2 Kelvin. The Temperature shift in assay [33] is reported as 0.7 Kelvin; in assay [35], -0.2 Kelvin; in assay [36] it was -0.1 Kelvin; in assay [37], -0.7 Kelvin; in [39], -0.3 Kelvin; in [41], 0.3 Kelvin. Moreover, the values for the Temperature shift in [43] and in [44] were 0.4 Kelvin and 0.2 Kelvin, respectively. Moreover, the Kd in [34] (KD, BROMOscan, SMARCA4) is > 30000 nM.
As to `COc1ccc(CCc2nc3cc(-c4c(C)noc4C)ccc3n2C[C@H](C)N2CCOCC2)cc1Cl` [SGC-CBP30], the Kd was > 30000 nM in assay [34] (KD (BROMOscan), sheet prints no unit (nM)) and > 100000 nM in assay [34] (KD, BROMOscan, SMARCA4).
